Values quoted from earlier work, collected in patent US7771935B2, “Evolving new molecular function” (President and Fellows of Harvard College, priority 2002, dated 2010).

Biological target: T1, papain (Carica papaya, UniProt P00784)
T1 construct: purchased Sigma
T1 sequence (P00784 134-345): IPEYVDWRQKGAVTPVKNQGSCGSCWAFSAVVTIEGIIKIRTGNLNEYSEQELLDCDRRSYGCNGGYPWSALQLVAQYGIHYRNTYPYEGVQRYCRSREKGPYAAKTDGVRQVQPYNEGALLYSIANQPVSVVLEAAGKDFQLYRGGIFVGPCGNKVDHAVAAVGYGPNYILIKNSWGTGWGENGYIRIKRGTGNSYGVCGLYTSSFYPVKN
Details: known binding of the free ligand; cited from earlier work

## O=C(O)CCCC[C@@H]1SC[C@@H]2NC(=O)N[C@@H]21 [biotin]
  affinity for papain: no significant affinity
